Article PMC3788760

Target: full-length human protein disulfide isomerase (PDI) (human) (UniProt P07237)
Assay: ITC; 25.0°C; VP-ITC; 200 µM Tau244–372 (or 40 µM full-length Tau) in the syringe injected into 8.1 µM PDI or fragment (or 3.24 µM PDI) in the cell; 10 mM HEPES pH 7.4, 100 mM NaCl, no DTT; single set of identical sites model

Kd: 1810 nM | dH: -14.5 kcal/mol | stoichiometry N: 1.12
Substance: full-length human Tau (from UniProt P10636-8 1-441) (natural protein)
